We go through 1 compound from paper PMC12264554 (2025).

The conditions of this series: for K2EDTA KRBC/PL: pooled K2EDTA whole blood; for K2EDTA KRBC/PL / Heparin KRBC/PL: 2 hours, LC-MS/MS (ICP-MS for Ga^3+); for Heparin KRBC/PL: pooled sodium heparin whole blood; for KRBC/PL: equilibrium data, ICP-MS, K2EDTA whole blood.

Like-named read-outs stand apart in the source and are kept apart here.

With `O=[N+]([O-])[O-].O=[N+]([O-])[O-].O=[N+]([O-])[O-].[Ga+3]` [Ga^3+, gallium nitrate, reference compound], the “K2EDTA KRBC/PL” value (0.1 μg/mL) is 0.12 ± 0.01 and the “K2EDTA KRBC/PL” value (1 μg/mL) turned out to be 0.11 ± 0.03. Moreover, the “Heparin KRBC/PL” value reads like this: (0.1 μg/mL) 0.12 ± 0.01; (1 μg/mL) 0.11 ± 0.01. Moreover, the “KRBC/PL (B/P ratio)” value (concentration in whole blood divided by concentration in plasma, this study) was found to be 0.3. For the same compound, the KRBC/PL is 0.114 ± 0.026 (HQC) and 0.115 ± 0.010 (LQC).
